From patent US7510845B2, “Assay employing G protein-coupled receptor expressed in dorsal root ganglia” (California Institute of Technology, priority 2000, dated 2009)

Legend:
Type in all cases: cell-based
MRGA1 [1] = molecular target: T1, MRGA1 (Mus musculus, UniProt Q91WW5); experiment: Intracellular Ca2+ release assay, MRGA1 in HEK cells lacking Gα15; details: ligand 1 μM
T1 construct: cDNAs encoding eight full-length variants of Mrg receptors (mMrgA1-8) are provided; expressed in transfected cells; host or cells: HEK293-Galpha15 (A1) or HEK293 lacking Galpha15 (A4), transient transfection with FuGENE 6
T1 sequence (Q91WW5 1-304): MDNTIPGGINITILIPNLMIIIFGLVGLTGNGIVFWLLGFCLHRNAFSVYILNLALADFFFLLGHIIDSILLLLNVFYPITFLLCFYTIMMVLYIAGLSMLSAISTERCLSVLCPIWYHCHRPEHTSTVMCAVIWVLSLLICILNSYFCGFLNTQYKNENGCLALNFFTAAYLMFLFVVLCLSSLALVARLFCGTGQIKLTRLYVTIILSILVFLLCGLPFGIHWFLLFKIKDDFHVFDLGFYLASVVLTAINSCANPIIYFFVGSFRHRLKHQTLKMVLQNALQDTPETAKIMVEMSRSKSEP
Experimental: (§1) To identify ligands for the Mrg receptors, selected MrgA genes were tested in a calcium release assay. MrgA genes, including MrgA1 and MrgA4, were cloned into a eukaryotic expression vector and transfected into human embryonic kidney (HEK) 293 cells. HEK-293 cells were obtained from the ATCC and cultured in DMEM supplemented with 10% fetal bovine serum. […]
(§2) Briefly, transfected cells were washed once in Hank's balanced salt solution with 11 mM D-glucose and 10 mM HEPES, pH 7.4 (assay buffer) and loaded with 2 μM Fura-2 AM (Molecular Probes) at room temperature for 90 min, with rotation. […] A cooled CCD camera (Photometric) was used in detecting fluorescence. […] Fura-2 fluorescence signals (340 nm, 380 nm and the 340/380 ratio) originating from GFP-positive cells were continuously monitored at 0.4- or 1-second intervals and collected using Axon Imaging Workbench 4.0 software (Axon). […]

MRGA1 [2] = molecular target: T1, MRGA1; experiment: Intracellular Ca2+ release assay (Fura-2), MRGA1-GFP in HEK-Gα15 cells
Experimental: To identify ligands for the Mrg receptors, selected MrgA genes were tested in a calcium release assay. MrgA genes, including MrgA1 and MrgA4, were cloned into a eukaryotic expression vector and transfected into human embryonic kidney (HEK) 293 cells. HEK-293 cells were obtained from the ATCC and cultured in DMEM supplemented with 10% fetal bovine serum. An HEK293-Gα15 cell line stably expressing Gα15 was provided by Aurora Biosciences Corporation and grown on Matrigel™ (growth factor reduced Matrigel, Becton Dickinson, diluted 1:200 with serum-free DMEM)-coated flasks and maintained at 37° C. in DMEM (GibcoBRL) supplemented with 10% heat-inactivated fetal bovine serum, 2 mM L-glutamine, 0.1 mM non-essential amino acids, 1 mM sodium pyruvate, 25 mM HEPES and 3 μg/ml blastcidin-S. For transfection, cells were seeded on Matrigel-coated 35 mm glass-bottom dishes (Bioptech Inc., Butler, Pa.). After 16-24 hr, cells were transfected using FuGENE 6 (Roche). Transfection efficiencies were estimated by visualization of GFP fused to the C-terminus of MrgA1 and A4, and were typically >60%. […]
(§3) To increase the sensitivity of the calcium release assay, in some experiments the MRGA-GFP fusion proteins were expressed in HEK 293 cells modified to express Gα15, which couples GPCRs to a signal transduction pathway leading to the release of intracellular free Ca^2+ (Offermann and Simon J Biol Chem 270: 15175-80 (1995)). This calcium release can be monitored ratiometrically using Fura-2 as a fluorescent indicator dye (Tsien et al. Cell Calcium 6: 145-57 (1985)) (FIGS. 11A-C). […]
as §2

MRGA4 [3] = molecular target: T2, MRGA4 (Mus musculus, UniProt Q91WW2, A204G); experiment: Intracellular Ca2+ release assay (Fura-2), MRGA4-GFP in HEK-Gα15 cells
T2 construct: cDNAs encoding eight full-length variants of Mrg receptors (mMrgA1-8) are provided; expressed in transfected cells; host or cells: HEK293-Galpha15 (A2) or HEK293 lacking Galpha15 (A5), transient transfection with FuGENE 6
T2 sequence (Q91WW2 9-313 A204G limits assumed): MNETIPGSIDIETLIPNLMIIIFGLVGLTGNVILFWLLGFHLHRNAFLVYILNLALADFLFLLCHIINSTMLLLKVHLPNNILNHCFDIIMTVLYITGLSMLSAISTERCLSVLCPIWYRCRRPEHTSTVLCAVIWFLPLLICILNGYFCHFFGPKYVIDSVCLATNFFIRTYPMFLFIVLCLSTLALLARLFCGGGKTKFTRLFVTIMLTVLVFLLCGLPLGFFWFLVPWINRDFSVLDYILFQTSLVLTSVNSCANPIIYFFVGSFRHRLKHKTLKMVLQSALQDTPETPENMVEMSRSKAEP
Experimental: as §1, §3, §2

MAS1 = experiment: Intracellular Ca2+ release assay (Fura-2), MAS1 in HEK-Gα15 cells
MRGA4 [4] = molecular target: T2, MRGA4; experiment: Intracellular Ca2+ release assay, MRGA4 in HEK cells lacking Gα15; details: ligand 1 μM
Experimental: as §1, §2

## CC(C)C[C@H](NC(=O)[C@@H](N)Cc1ccccc1)C(=O)N[C@@H](CCCNC(=N)N)C(=O)N[C@@H](Cc1ccccc1)C(N)=O [FLRF]
MRGA1 [1]
  Calcium response of MRGA1-expressing cells to ligand: respond
MRGA1 [2]; HEK cells, RF-amide ligands, read-out: Relative efficacy of activation of MRGA1
  EC50: 10 to 100 nM
MRGA1 [2]; HEK-Gα15 cells, dose-response, normalized to 5 μM FLRF, read-out: EC50 for activation of MRGA1 (calcium response)
  EC50: ~20 nM
MRGA1 [2]; HEK-Gα15 cells, ligand 1 μM
  Calcium response of MRGA1-expressing cells to ligand: most efficient responses; also recorded: elevated intracellular free Ca^++; also recorded: strongest responses
MRGA4 [3]; HEK cells expressing Gα15
  Activation of MrgA4 in dose-response experiments: much more weakly activated
MRGA4 [3]; HEK cells, RF-amide ligands, read-out: Relative efficacy of activation of MRGA4
  EC50: > 1000 nM
MAS1; HEK cells, RF-amide ligands, read-out: Relative efficacy of activation of MAS1
  EC50: > 1000 nM
MAS1; HEK-Gα15 cells
  Activation of MAS1: poorly activated; also recorded: not as well activated
MRGA4 [4]
  Calcium response of MRGA4-expressing cells to ligand: but not

Entries after “also recorded” stand apart in the source; their conditions may differ. Where two headings read alike, the source gives them in different places.
